Tested on: Vero cell
Assay: Cytotoxicity test on Vero cell (MTT)
Conditions: 72 hours

## NC(=O)c1ncn([C@@H]2O[C@H](CO)[C@@H](O)[C@H]2O)n1 [Ribavirin, ribavirin]
  maximal non-toxic concentration (TC0): 0.065 g/L
